## AlphaSeq binding of Ab-14 light chain variants to a spike HR2 peptide

Source: Engelhart et al. 2022 (doi:10.1038/s41597-022-01779-4), MIT Lincoln Laboratory and A-Alpha Bio; data file from the FLAb repository.

Antigen: PDVDLGDISGINAS, a 14-residue peptide of the SARS-CoV-2 spike HR2 region.

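The starting antibody came from a phage panning campaign against this peptide. Library AAYL50 holds single substitutions and randomly drawn double and triple substitutions in the CDRs. Affinity was read by AlphaSeq, a pooled yeast mating assay with surface-displayed partners. Binding brings cells together so that they mate, and sequencing counts the barcode pairs among the diploids. Read counts were normalised to the haploid input and turned into Kd by a linear fit to BCL2-family pairs of known affinity, for each replicate. The assay was run in three technical replicates.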

Each scFv is VH, three GGGGS repeats, VL, as in the parent Ab-14, and differs from it in the CDRs of the light chain only.
VH: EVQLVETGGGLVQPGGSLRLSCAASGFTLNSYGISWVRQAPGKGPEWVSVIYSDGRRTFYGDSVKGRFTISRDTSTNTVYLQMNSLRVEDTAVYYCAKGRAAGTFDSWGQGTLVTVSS
VL: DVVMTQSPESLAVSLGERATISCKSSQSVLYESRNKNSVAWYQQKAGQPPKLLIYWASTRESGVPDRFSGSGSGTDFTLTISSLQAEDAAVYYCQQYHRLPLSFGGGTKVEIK

Each variant is given by its three light chain CDRs, as the data file delimits them; those of the parent are KSSQSVLYESRNKNSVA, WASTRES, QQYHRLPLS. Values are log10 of the apparent Kd in nM; lower means stronger binding. Replicates are averaged; those with no signal do not enter the mean. A pair that was not seen in that replicate is written "nd"; this usually means weak binding, but a binder can also be missed. Empty control strains, which show no peptide, gave a signal in 18% of pairings with library AAYL50; the median was 4.19 and 95% of these signals were weaker than 2.99. No background was subtracted. Also given: how often the same scFv was detected with the empty control strains.

Result 4.72, nd, nd (controls 0 of 9), variant KSSQSVLYESRNKNSVN, WASTRHS, QQYHRLPTS.
Result nd, nd, nd (controls 5 of 9), variant KSSQSQNYYSRNKNSVA, WASTRES, QQYHRLPLS.
Result nd, nd, nd (controls 0 of 9), variant KSSQSVLYESRYKNSVA, WQSTRES, QQYHRLPLY.
Result nd, nd, 5.75 (controls 4 of 9), variant QQSQSVLYESRNKISVA, WASTRES, QQYHRLPLS.
Result -0.29, 0.07, -0.15 (mean -0.12; controls 2 of 9), variant KVSQSVLYESRNKNSVA, YASTRES, QQYARLPLS.
Result 0.70, 0.85, 0.75 (mean 0.77; controls 3 of 9), variant KMSQSVLYEMRNKNSVA, WAVTRES, QQYHRLPLS.
Result 4.65, nd, 4.67 (mean 4.66; controls 3 of 9), variant KSSFSVLYESRNKNLVA, WASTRES, QQYHRGPLS.
Result nd, nd, nd (controls 0 of 9), variant KSSQSVLYESRNSSSVA, WPSTRES, QQYHRLPLS.
Result 0.00, 0.30, 0.06 (mean 0.12; controls 5 of 9), variant KLSQSVLYESRNKNSVA, KASTRES, QGYHRLPLS.
Result nd, nd, nd (controls 0 of 9), variant KSSQSVLYESRNKNSWA, WASTRES, QLYRRLPLS.
Result 5.35, 4.12, 3.54 (mean 4.34; controls 2 of 9), variant KSSQSVLYESRNQNSVA, WASTRES, LQYHRLPGS.
Result 3.10, 2.28, 3.30 (mean 2.89; controls 2 of 9), variant ISSQSVLYQSRNKNSVA, WASTRES, QQYHRLPLD.
Result nd, nd, nd (controls 0 of 9), variant KSSQSVLYEIVNKNSVA, WASTRES, QQYHRLPNS.
Result 4.35, 2.93, nd (mean 3.64; controls 6 of 9), variant KSIQSVLYESRNKNSVA, WASTRES, QQYHALPLD.
Result 2.66, nd, nd (controls 0 of 9), variant KTSQSVLYESRNKNSFA, WASTRES, QQYHRAPLS.
Result 1.22, 1.86, 1.68 (mean 1.59; controls 1 of 9), variant NSSQSVLYESRNKCSVA, WGSTRES, QQYHRLPLS.
Result 3.50, nd, 6.28 (mean 4.89; controls 2 of 9), variant KSSQSVLYESRNKNSVA, VASTREE, QQVHRLPLS.
Result 2.80, 3.78, nd (mean 3.29; controls 0 of 9), variant KSSQSVLYRSRNKNSVA, VASTRES, QQGHRLPLS.
Result 0.16, 0.46, 0.31 (mean 0.31; controls 8 of 9), variant KSSQSVLNESRNKNSVA, DASTRFS, QQYHRLPLS.
Result nd, nd, nd (controls 3 of 9), variant KSSQSVLYESRLKNSRA, WASTRES, QQYHRRPLS.
Result nd, nd, nd (controls 1 of 9), variant KSSQSVLYESRNKNYVA, WLSTRES, QQAHRLPLS.
Result 1.37, 1.26, 1.55 (mean 1.39; controls 0 of 9), variant KSSQSVLYESYNKNSVA, WMSTRES, QQYHRLPLS.
Result nd, 2.66, nd (controls 0 of 9), variant KSSQSVLYESRNKNSVA, WASTRES, QGYQRLPLA.
Result 1.70, 1.84, 1.83 (mean 1.79; controls 5 of 9), variant KSSQSVLYESRNQREVA, WASTRES, QQYHRLPLS.
Result 1.58, 1.36, 1.68 (mean 1.54; controls 1 of 9), variant KSSQSVFYEKRNKNSVA, WASTRES, QQYHRLPLS.
Result nd, nd, nd (controls 0 of 9), variant KSSQSVLYEGRNKNSVE, WASTTES, QQYHRLPLS.
Result nd, 3.68, nd (controls 0 of 9), variant KSMQSVLYESRNKNSKA, WASSRES, QQYHRLPLS.
Result 2.79, 2.48, 2.38 (mean 2.55; controls 0 of 9), variant KSSQSVLYESRNDNDVA, WASTRES, QQYHRLPLD.
Result nd, 3.99, nd (controls 0 of 9), variant KSSQSVLYISRNKNSVA, WACTRES, QQYHRLPLS.
Result 0.73, 0.95, 0.80 (mean 0.83; controls 2 of 9), variant KSSQSVLAESFNKDSVA, WASTRES, QQYHRLPLS.

A selection of 4 entries from above:

{"CDR-L1": "KSSQSQNYYSRNKNSVA", "CDR-L2": "WASTRES", "CDR-L3": "QQYHRLPLS", "log10 Kd, replicates": "nd, nd, nd", "mean log10 Kd (nM)": "nd", "empty controls": "5/9"}
{"CDR-L1": "KSSQSVLYRSRNKNSVA", "CDR-L2": "VASTRES", "CDR-L3": "QQGHRLPLS", "log10 Kd, replicates": "2.80, 3.78, nd", "mean log10 Kd (nM)": "3.29", "empty controls": "0/9"}
{"CDR-L1": "KSSQSVLNESRNKNSVA", "CDR-L2": "DASTRFS", "CDR-L3": "QQYHRLPLS", "log10 Kd, replicates": "0.16, 0.46, 0.31", "mean log10 Kd (nM)": "0.31", "empty controls": "8/9"}
{"CDR-L1": "NSSQSVLYESRNKCSVA", "CDR-L2": "WGSTRES", "CDR-L3": "QQYHRLPLS", "log10 Kd, replicates": "1.22, 1.86, 1.68", "mean log10 Kd (nM)": "1.59", "empty controls": "1/9"}